Measured values taken from patent publication US12539333B2, “Tetracycline complexes with sustained activity” (FRAUNHOFER-GESELLSCHAFT ZUR FÖRDERUNG DER ANGEWANDTEN …, priority 2018, dated 2026).

Assay: Solubility in different solvents

1:2 Complex of Minocycline (Free Base) and Magnesium Stearate [Example 1]
solubility in water: reduced water solubility compared to the parent drug
